Measurements reported in patent US12583939B2, “Bispecific antigen binding molecules that bind HER2, and methods of use thereof” (Regeneron Pharmaceuticals, Inc., priority 2020, dated 2026).

Columns and labels:
N87 xenograft = assay: HER2 IHC3+ N87 xenograft model, Campt1 ADCs (Example 20); type: in vivo, SCID mice; conditions: single dose: 10 mg/kg (3 mg/kg for BsAb2-Tubulysin 1A-LP)
JIMT1 xenograft = assay: HER2 IHC2+ JIMT1 xenograft model, three ADCs (Example 16); type: in vivo, SCID mice; conditions: for JIMT1 Xenograft Tumor Size Average: 3 × 10 mg on days 13, 20, 27
MDAMB361 cells = assay: Cell surface binding, flow cytometry; type: cell-based
JIMT1 cells = assay: Cell surface binding, flow cytometry; type: cell-based
ZR751 cells = assay: Cell surface binding, flow cytometry; type: cell-based
MDAMB231 = assay: Surface binding, high content imaging; type: cell-based; conditions: 10 ug/mL antibody
[1] = tested on: Primary Mammary Epithelial cells; assay: Surface binding, high content imaging; type: cell-based; conditions: Breast; 10 ug/mL antibody
SKBR3 = assay: Surface binding, high content imaging; type: cell-based; conditions: 10 ug/mL antibody
Primary Myocardial cells = assay: Surface binding, high content imaging; type: cell-based; conditions: Myocardium; 10 ug/mL antibody
MDAMB453 = assay: Surface binding, high content imaging; type: cell-based; conditions: 10 ug/mL antibody
epG2 = assay: Surface binding, high content imaging; type: cell-based; conditions: 10 ug/mL antibody
MDAMB361 = assay: Surface binding, high content imaging; type: cell-based; conditions: 10 ug/mL antibody
EBC1 = assay: Surface binding, high content imaging; type: cell-based; conditions: 10 ug/mL antibody
MCF7 = assay: Surface binding, high content imaging; type: cell-based; conditions: 10 ug/mL antibody
B1483 = assay: Surface binding, high content imaging; type: cell-based; conditions: 10 ug/mL antibody
[2] = tested on: Primary Lung Epithelial cells; assay: Surface binding, high content imaging; type: cell-based; conditions: 10 ug/mL antibody
[3] = tested on: Primary Prostate Epithelial cells; assay: Surface binding, high content imaging; type: cell-based; conditions: 10 ug/mL antibody
CaLu3 = assay: Surface binding, high content imaging; type: cell-based; conditions: 10 ug/mL antibody
MDAMB469 = assay: Surface binding, high content imaging; type: cell-based; conditions: 10 ug/mL antibody
SKOV3 = assay: Surface binding, high content imaging; type: cell-based; conditions: 10 ug/mL antibody
JIMT1 = assay: Surface binding, high content imaging; type: cell-based; conditions: 10 ug/mL antibody
BT474 = assay: Surface binding, high content imaging; type: cell-based; conditions: 10 ug/mL antibody
N87 = assay: Surface binding, high content imaging; type: cell-based; conditions: 10 ug/mL antibody
ZR751 = assay: Surface binding, high content imaging; type: cell-based; conditions: 10 ug/mL antibody

Substance: CompAb1-GGFG-Dxd: comparator ADC of CompAb1 with GGFG-Dxd; probably the same as DS8201A [reference compound]
- anti-tumor response (N87 xenograft): comparable

Substance: CompAb1-L-Camptothecin: DS8201A, an anti-HER2 ADC comprising a DxD payload; parental antibody Herceptin
- anti-tumor effect (JIMT1 xenograft; 3 mg/kg Tubulysin 1A-LP ADCs (BsAb1: single dose), weekly 10 mg/kg Maytansinoid A and Camptothecin ADCs): only a slow-down in tumor progression
- JIMT1 Xenograft Tumor Size Average (JIMT1 xenograft; day 7): 84 mm^3
- JIMT1 Xenograft Tumor Size Average (JIMT1 xenograft; day 13): 182 mm^3
- JIMT1 Xenograft Tumor Size Average (JIMT1 xenograft; day 15): 204 mm^3
- JIMT1 Xenograft Tumor Size Average (JIMT1 xenograft; day 17): 225 mm^3
- JIMT1 Xenograft Tumor Size Average (JIMT1 xenograft; day 20): 225 mm^3
- JIMT1 Xenograft Tumor Size Average (JIMT1 xenograft; day 23): 224 mm^3
- JIMT1 Xenograft Tumor Size Average (JIMT1 xenograft; day 27): 184 mm^3
- JIMT1 Xenograft Tumor Size Average (JIMT1 xenograft; day 29): 227 mm^3
- JIMT1 Xenograft Tumor Size Average (JIMT1 xenograft; day 31): 219 mm^3
- JIMT1 Xenograft Tumor Size Average (JIMT1 xenograft; day 34): 249 mm^3
- JIMT1 Xenograft Tumor Size Average (JIMT1 xenograft; day 36): 281 mm^3
- JIMT1 Xenograft Tumor Size Average (JIMT1 xenograft; day 38): 315 mm^3
- JIMT1 Xenograft Tumor Size Average (JIMT1 xenograft; day 41): 345 mm^3
- JIMT1 Xenograft Tumor Size Average (JIMT1 xenograft; day 44): 374 mm^3
- JIMT1 Xenograft Tumor Size Average (JIMT1 xenograft; day 48): 446 mm^3
- JIMT1 Xenograft Tumor Size Average (JIMT1 xenograft; day 50): 500 mm^3
- JIMT1 Xenograft Tumor Size Average (JIMT1 xenograft; day 53): 557 mm^3
- JIMT1 Xenograft Tumor Size Average (JIMT1 xenograft; day 57): 727 mm^3
- JIMT1 Xenograft Tumor Size Average (JIMT1 xenograft; day 65): 963 mm^3
- JIMT1 Xenograft Tumor Size Average (JIMT1 xenograft; day 69): 1161 mm^3
- average xenograft size (JIMT1 xenograft; three weekly doses of 10 mg/kg, by day 44): 374 mm^3

Substance: CompAb1: parental anti-HER2 antibody, Herceptin [reference compound]
- MFI (MDAMB361 cells; [Ab] 0.04 ug/ml): 304 A.U.
- MFI (MDAMB361 cells; [Ab] 0.08 ug/ml): 465 A.U.
- MFI (MDAMB361 cells; [Ab] 0.31 ug/ml): 1259 A.U.
- MFI (MDAMB361 cells; [Ab] 0.63 ug/ml): 2097 A.U.
- MFI (MDAMB361 cells; [Ab] 1.25 ug/ml): 3780 A.U.
- MFI (MDAMB361 cells; [Ab] 2.5 ug/ml): 6183 A.U.
- MFI (MDAMB361 cells; [Ab] 5 ug/ml): 8988 A.U.
- MFI (MDAMB361 cells; [Ab] 10 ug/ml): 12003 A.U.
- MFI (MDAMB361 cells; [Ab] 20 ug/ml): 13863 A.U.
- MFI (MDAMB361 cells; [Ab] 40 ug/ml): 14675 A.U.
- MFI (JIMT1 cells; [Ab] 0.04 ug/ml): 276 A.U.
- MFI (JIMT1 cells; [Ab] 0.08 ug/ml): 481 A.U.
- MFI (JIMT1 cells; [Ab] 0.31 ug/ml): 1377 A.U.
- MFI (JIMT1 cells; [Ab] 0.63 ug/ml): 2396 A.U.
- MFI (JIMT1 cells; [Ab] 1.25 ug/ml): 3778 A.U.
- MFI (JIMT1 cells; [Ab] 2.5 ug/ml): 5713 A.U.
- MFI (JIMT1 cells; [Ab] 5 ug/ml): 7995 A.U.
- MFI (JIMT1 cells; [Ab] 10 ug/ml): 10320 A.U.
- MFI (JIMT1 cells; [Ab] 20 ug/ml): 11378 A.U.
- MFI (JIMT1 cells; [Ab] 40 ug/ml): 11349 A.U.
- MFI (ZR751 cells; [Ab] 0.04 ug/ml): 435 A.U.
- MFI (ZR751 cells; [Ab] 0.08 ug/ml): 648 A.U.
- MFI (ZR751 cells; [Ab] 0.31 ug/ml): 1850 A.U.
- MFI (ZR751 cells; [Ab] 0.63 ug/ml): 3283 A.U.
- MFI (ZR751 cells; [Ab] 1.25 ug/ml): 5369 A.U.
- MFI (ZR751 cells; [Ab] 2.5 ug/ml): 7901 A.U.
- MFI (ZR751 cells; [Ab] 5 ug/ml): 9983 A.U.
- MFI (ZR751 cells; [Ab] 10 ug/ml): 11078 A.U.
- MFI (ZR751 cells; [Ab] 20 ug/ml): 11793 A.U.
- MFI (ZR751 cells; [Ab] 40 ug/ml): 11749 A.U.
- MFI (MDAMB231): 0.1798 A.U.
- MFI [1]: 0.2415 A.U.
- MFI (SKBR3): 1.938 A.U.
- MFI (Primary Myocardial cells): 0.09543 A.U.
- MFI (MDAMB453): 0.8035 A.U.
- MFI (epG2): 0.4002 A.U.
- MFI (MDAMB361): 1.522 A.U.
- MFI (EBC1): 0.2684 A.U.
- MFI (MCF7): 0.2831 A.U.
- MFI (B1483): 0.4949 A.U.
- MFI [2]: 0.3032 A.U.
- MFI [3]: 0.2042 A.U.
- MFI (CaLu3): 1.53 A.U.
- MFI (MDAMB469): 0.1304 A.U.
- MFI (SKOV3): 1.603 A.U.
- MFI (JIMT1): 0.6212 A.U.
- MFI (BT474): 1.736 A.U.
- MFI (N87): 1.8087 A.U.
- MFI (ZR751): 0.6014 A.U.
